This is an account of results in patent publication US9861612B2 (priority 2014, dated 2018).

By UniProt entry, the sequences of proteins in these tests, tags left out. Where a name states a change or a piece, a line headed by the entry shows the natural chain unless it says otherwise.
UniProt P51449: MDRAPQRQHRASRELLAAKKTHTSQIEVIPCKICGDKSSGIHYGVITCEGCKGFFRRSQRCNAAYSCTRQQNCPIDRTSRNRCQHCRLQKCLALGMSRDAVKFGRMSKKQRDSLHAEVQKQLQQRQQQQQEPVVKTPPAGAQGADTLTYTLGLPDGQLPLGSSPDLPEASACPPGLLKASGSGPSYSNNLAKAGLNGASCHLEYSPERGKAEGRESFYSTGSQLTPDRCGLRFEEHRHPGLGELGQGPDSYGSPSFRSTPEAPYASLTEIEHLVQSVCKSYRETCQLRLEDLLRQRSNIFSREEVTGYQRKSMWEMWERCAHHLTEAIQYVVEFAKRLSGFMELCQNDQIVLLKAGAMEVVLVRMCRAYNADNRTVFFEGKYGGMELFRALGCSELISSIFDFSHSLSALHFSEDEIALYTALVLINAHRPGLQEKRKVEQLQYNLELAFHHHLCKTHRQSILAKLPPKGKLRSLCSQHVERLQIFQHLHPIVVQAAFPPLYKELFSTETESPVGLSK

Read-outs that look alike come from different tables or passages of the source.

For orientation: IC50 means the concentration at which inhibition is half-maximal.

For this test, the target named is RORγ ligand binding domain (Homo sapiens (Human), UniProt P51449). Description: biochemical. How it is done:
Various concentrations of test ligands in 0.1 microlitres DMSO were dispensed to assay plates using an Labcyte Echo acoustic dispenser. Two pre-mixes were prepared and incubated for 1 hr at room temp in the dark.

Take `O=C(O)c1ccc(-n2cc(C(=O)c3c(Cl)cccc3C(F)(F)F)c3ccccc32)cc1` [Comparator 1, 4-[3-[2-chloro-6-(trifluoromethyl)benzoyl]-1H-indol-1-yl]benzoic acid, reference compound]: the IC50 (read-out: RORγ FRET-Mean IC50) was found to be 97.4 nM.
`O=C(O)c1ccc(-n2cc(C(=O)c3c(Cl)cccc3C(F)(F)F)c3cccc(F)c32)cc1` [Compound 1, 4-[3-[2-chloro-6-(trifluoromethyl)benzoyl]-7-fluoro-1H-indol-1-yl]benzoic acid] displayed an IC50 of 43.6 nM.
